Bioassay records from PubChem.
This is a sample that favours compounds with a hit; in the whole collection about 2.2% have one here.
SIRT5 block = blocks human SIRT5 desuccinylation of peptide. Q9NXA8. Purified SirT5, succinyl-peptide AMC, trypsin-coupled fluorescence. inhibition, % at 15 µM. 330,000 tested, 1.1% active; in the data active = inhibition above about 15%
FGF22 binding-1 = FGF22 (human) thermal shift binding; Q9HCT0; recombinant FGF22 thermal shift, SYPRO orange fluorescence; percent of sucrose octasulfate shift, DMSO zero; activity (Tm shift, normalised), % at 9.99 µM; 340,000 tested, 1.5% active;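 active = mean Tm shift, scaled 0 neutral to 100 positive control, at about 1.3% or above, every replicate too, limit read from the data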
Yeast UUG start = modulators of yeast start codon fidelity, primary screen, whole organism, S. cerevisiae, single point, plate reader; S. cerevisiae UUG-firefly luciferase reporter, luminescence/redox ratio; activity score, % at 18.7 µM; actives 0.13% (n = 350,000); AID 602363, 2012;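 active = replicate mean at a twofold rise or more, about +100% in these data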;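 also: firefly luciferase made from a UUG start codon reports start codon fidelity; reporter light over untreated wells divided by growth signal over untreated wells; some hits fall short of that in this replicate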
ERp5 block = blocks human ERp5 reductase activity on insulin | 350,000 tested, 0.05% active | ERp5 insulin aggregation, absorbance 650 nm, 90 min | Q15084 | inhibition, % at 9.99 µM;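 active = mean replicate inhibition above about 25%, with every replicate also reaching it, limit read from the data, passing the limit was not always enough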
PDI inh = blocks human protein disulfide isomerase activity. P07237. PDI insulin aggregation turbidity, A650, 90 min. inhibition, % at 10 µM. 350,000 tested, 0.052% active;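 active = mean inhibition across replicates of 30% or more, whatever share of single replicates reach that level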
S100A4 MyoIIA = inhibitors of human S100A4 binding to myosin IIA peptide; S100A4/TAMRA-MyoIIA peptide fluorescence polarization; inhibition, % at 10.7 µM; 360,000 tested, 0.14% active; AID 652163;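 active = mean inhibition of at least 70% across replicates, with every replicate also reaching that level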
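Material: S100A4 monomer protein | Medium: HEPES pH 7.2 with CaCl2, KCl, NaCl, DTT, Triton | Reagent: Labelled myosin peptide probe, 5 nM | Doses: One dose per compound | Times: 5 min incubation before reading | Benchmarks: Neutral control DMSO, positive control TFP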
FGF22 binding-2 = binds human FGF22 shifting its melting temperature; thermal shift activity, °C (ΔTm) at 38 µM; recombinant FGF22 thermal shift, SYPRO orange fluorescence; 1,000 tested, 2% active; AID 720646; shares compounds with FGF22 binding-1;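 active = fitted rise in melting shift crosses a set limit at or below the top valid dose tested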
FGF22 TSA DP = binds human FGF22 shifting its melting temperature; shares compounds with FGF22 binding-1; Thermal shift assay, SYPRO orange, melting temperature shift; Tm shift (activity), % at 38 µM; 50 tested, under 10 active; AID 743017;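 active = compounds whose fitted dose curve of melting temperature shift rises past a set threshold within the tested doses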
TSA no protein = counter-screen for FGF22 binders: compound-only thermal shift, no protein; shares compounds with FGF22 binding-1; compound-only SYPRO orange thermal shift counter-screen; AC50, µM (doses to about 38 µM); 1,000 tested, 2% active; AID 743019;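 active = rising signal whose fitted curve reaches the 0.54 level within the top valid dose, showing a melting point, actives reach about 13 µM in these data; inactive = the rest, including activity in the opposite direction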; note: value is where the raw curve crosses a fixed level and not half-maximal
Starred values were filed as active, the others as inactive; i = inactive; nt = no result given; [ ] = another dose, or the depositor's remark.

SMILES	SIRT5 block	FGF22 binding-1	Yeast UUG start	ERp5 block	PDI inh	S100A4 MyoIIA	FGF22 binding-2	TSA no protein	others
CC(=O)Nc1ccc2c(c1)C(=O)N(C)[C@H]1CC[C@H](CC(=O)NCc3ccc(Cl)cc3)O[C@H]1CO2	-2	0	4	3	nt	9	nt	nt
O=C(c1ccccc1)N1CC2(C1)[C@H](c1ccccc1)[C@H](CO)N2Cc1cc(F)ccc1F	-2	1.3*	nt	0	nt	0	0.15[42 µM]	i
O=C(C1CCOCC1)N1CC2(C1)[C@@H](c1ccccc1)[C@@H](CO)N2Cc1ccccc1F	-6	1.5*	nt	-7	nt	8	0.019	i
Cc1ccn(-c2ccc(NC(=O)c3cccs3)cc2)n1	-5	1.8*	-31	-16	-8	-18	0.088	i	FGF22 TSA DP=0
O=C(Nc1ccc(NC(=O)c2cccs2)cc1)c1cccs1	-4	1	-5	-4	-7	-12	nt	nt
COc1ccc(CN(C)C[C@@H]2OCCCC[C@@H](C)Oc3ccc(NC(=O)Nc4c(C)noc4C)cc3C(=O)N([C@@H](C)CO)C[C@H]2C)cc1	-3	1	1	2	nt	3	nt	nt
Clc1ccc(Nc2ccc(NCc3ccccc3)nn2)cc1	4	2.3*	nt	0	7	4	0.014	i	FGF22 TSA DP=0
COC(=O)c1cn(NC(=O)Cc2ccccc2OC)c(=O)c2ccccc12	0	2.1*	0	3	0	-4	0.046	i
CCCC#Cc1ccc2c(c1)O[C@H](CN(C)Cc1cccnc1)[C@@H](C)CN([C@@H](C)CO)S2(=O)=O	5	0	-9	-2	nt	-6	nt	nt
COc1ccc(S(=O)(=O)N(C)C[C@H]2OCc3cnnn3CCCC(=O)N([C@@H](C)CO)C[C@@H]2C)cc1	-2	-1	-1	-1	nt	7	nt	nt

2 entries picked at random from the list so far, as already listed:
SMILES	SIRT5 block	FGF22 binding-1	Yeast UUG start	ERp5 block	PDI inh	S100A4 MyoIIA	FGF22 binding-2	TSA no protein	others
CCCC#Cc1ccc2c(c1)O[C@H](CN(C)Cc1cccnc1)[C@@H](C)CN([C@@H](C)CO)S2(=O)=O	5	0	-9	-2	nt	-6	nt	nt
COc1ccc(CN(C)C[C@@H]2OCCCC[C@@H](C)Oc3ccc(NC(=O)Nc4c(C)noc4C)cc3C(=O)N([C@@H](C)CO)C[C@H]2C)cc1	-3	1	1	2	nt	3	nt	nt

Back to the main list, repeating the 2 entries before the break.
SMILES	SIRT5 block	FGF22 binding-1	Yeast UUG start	ERp5 block	PDI inh	S100A4 MyoIIA	FGF22 binding-2	TSA no protein	others
CCCC#Cc1ccc2c(c1)O[C@H](CN(C)Cc1cccnc1)[C@@H](C)CN([C@@H](C)CO)S2(=O)=O	5	0	-9	-2	nt	-6	nt	nt
COc1ccc(S(=O)(=O)N(C)C[C@H]2OCc3cnnn3CCCC(=O)N([C@@H](C)CO)C[C@@H]2C)cc1	-2	-1	-1	-1	nt	7	nt	nt
CO[C@@H]1CN(C)C(=O)c2cc(NC(=O)Nc3ccccc3Cl)ccc2OC[C@@H](C)N(Cc2ccccc2C(=O)O)C[C@H]1C	0	nt	5	1	nt	1	nt	nt
CC(=O)c1ccc(NS(=O)(=O)c2ccc(N)cc2)cc1	nt	25*	-3	-2	13	-10	-0.036	i
O=C(NC[C@@H]1N[C@@H](CO)[C@@H]1c1ccccc1)C1CC1	4	0	1	7	nt	-2	nt	nt
O=S(=O)(NC[C@H]1N[C@H](CO)[C@H]1c1ccccc1)c1ccccc1	2	2.4*	-5	-7	nt	-7	0.14	i
C[C@@H]1CN([C@@H](C)CO)C(=O)c2cc(NC(=O)c3ccncc3)ccc2O[C@@H](C)CCCCO[C@@H]1CN(C)S(=O)(=O)c1cn(C)cn1	3	0	-5	-2	nt	16	nt	nt
Cn1c(=O)[nH]c(=O)c2c1nc(SCC(O)CO)n2CCCc1ccccc1 (stereo not drawn)	-2	1.4*	7	1	6	-1	0.026	i
CC(C)CCSc1nc2c(c(=O)[nH]c(=O)n2C)n1CCCc1ccccc1	-2	0	-22	-4	nt	-2	nt	nt
O=C(N/N=C\c1cccnc1)c1cc(-c2ccc(Cl)s2)[nH]n1	-1	1.3*	nt	-2	0	0	-0.19	i
O=C(CNC(=O)c1cccc(Br)c1)N/N=C/c1cc(Br)cc(Br)c1O	2	1.7*	-7	7	-2	2	-0.14	i
O=C(CNC(=O)c1cccc(Br)c1)N/N=C/c1cccs1	-3	0	-1	3	-5	-22	nt	nt
O=C(C[C@@H]1CC[C@@H]2[C@H](COC[C@@H](O)CN2C(=O)Nc2ccc(Cl)cc2)O1)NCCc1ccncc1	2	0	nt	-1	nt	0	nt	nt
O=C(O)/C=C/c1cccc(NC(=O)Nc2ccc([N+](=O)[O-])cc2)c1	-12	1.6*	-15	0	-4	-3	0.077	i
